Assay results taken from patent US9278134B2, “Dual functioning ionic liquids and salts thereof” (priority 2008, dated 2016).

Assay: Thermal decomposition onset (T5% onset) by TGA
Conditions: not given

Substance | T5% onset [°C]
Cetylpyridinium Salicylate-clofibrate [Example 22] | 197
Cetylpyridinium Salicylate-ibuprofenate [CetPySalIbuH] | 173
Tetrabutylphosphonium Ibuprofenate-niacin [P(Bu)4[IbuNia]H] | 201
Tetrabutylphosphonium Salicylate [P(Bu)4:Sal 1:1] | 312
Tetrabutylphosphonium Salicylate-camphorsulfonic Acid [Example 15] | 203
Tetrabutylphosphonium Salicylate-cinnamic Acid [Example 17] | 191
Tetrabutylphosphonium Salicylate-ibuprofenic Acid [Example 14] | 181
Tetrabutylphosphonium Salicylate-lactic Acid [Example 16] | 178

Same assay, conditions: TGA/DSC, 25° C. to 600° C. with 5° C./min under nitrogen; choline salicylate-salicylic acid co-ionic liquids

Substance | T5% onset [°C]
Choline Salicylate-salicylic Acid [Cho:Sal 1:2] | 173

Same assay, conditions: TGA/DSC, 25° C. to 600° C. with 5° C./min under nitrogen; tetrabutylphosphonium ibuprofenate-ibuprofenic co-ionic liquids

Substance | T5% onset [°C]
Tetrabutylphosphonium Ibuprofenate-ibuprofenic Acid [P(Bu)4Ibu 1:2] | 264
Tetrabutylphosphonium Ibuprofenate-ibuprofenic Acid [P(Bu)4Ibu 1:3] | 189

Same assay, conditions: TGA/DSC, 25° C. to 600° C. with 5° C./min under nitrogen; tetrabutylphosphonium salicylate-salicylic acid co-ionic liquids

Substance | T5% onset [°C]
Tetrabutylphosphonium Salicylate [P(Bu)4:Sal 1:1] | 312
Tetrabutylphosphonium Salicylate-Salicylic Acid [P(Bu)4:Sal 1:1.1] | 297
Tetrabutylphosphonium Salicylate-Salicylic Acid [P(Bu)4:Sal 1:1.2] | 211
Tetrabutylphosphonium Salicylate-Salicylic Acid [P(Bu)4:Sal 1:1.3] | 207
Tetrabutylphosphonium Salicylate-Salicylic Acid [P(Bu)4:Sal 1:1.4] | 209
Tetrabutylphosphonium Salicylate-Salicylic Acid [P(Bu)4:Sal 1:1.5] | 206
Tetrabutylphosphonium Salicylate-Salicylic Acid [P(Bu)4:Sal 1:1.6] | 200
Tetrabutylphosphonium Salicylate-Salicylic Acid [P(Bu)4:Sal 1:1.7] | 194
Tetrabutylphosphonium Salicylate-Salicylic Acid [P(Bu)4:Sal 1:1.8] | 198
Tetrabutylphosphonium Salicylate-Salicylic Acid [P(Bu)4:Sal 1:1.9] | 198
Tetrabutylphosphonium Salicylate-Salicylic Acid [P(Bu)4:Sal 1:2.4] | 184
Tetrabutylphosphonium Salicylate-Salicylic Acid [P(Bu)4:Sal 1:2.7] | 173
Tetrabutylphosphonium Salicylate-Salicylic Acid [P(Bu)4:Sal 1:2.8] | 169
Tetrabutylphosphonium Salicylate-Salicylic Acid [P(Bu)4:Sal 1:2] | 192
Tetrabutylphosphonium Salicylate-Salicylic Acid [P(Bu)4:Sal 1:3.0] | 164
Tetrabutylphosphonium Salicylate-Salicylic Acid [P(Bu)4:Sal 1:3.7] | 150
